Assay results published in US20100137391A1, “Histamine H3 Agonist for use as Therapeutic Agent for a Lipid/Glucose Metabolic Disorder” (priority 2005, published 2010).

Tested on: wild type mice
Details: Imetit twice a day; FIGS. 5 and 7
Source text: Histamine H3 receptor knockout mice (hereinafter referred to as “H3RKO mice”) were produced by the method of Takahashi et al. (J. Clin. Invest, Vol. 110, p. 1791, 2002). The obtained knockout mice were subjected to back crossing with C57BL/6J over 5 generations. Six- to nine-month-old male litters were used in an acute drug administration test. On the other hand, 18- to 20-month-old mice whose parents were H3RKO mice or wild type mice (N5 of C57BL/6J) were used in a chronic drug administration test.
All mice were individually bred at 25° C., and light and dark were controlled every 12 hours. During breeding, water and feed were freely given to the mice. […]
Mice were divided into groups, depending on mean body weight and the amount of daily food intake before administration of the compound. The body weight and the amount of food intake were measured every day.
In the test using Thioperamide, mice were divided into 4 groups: a group in which a solvent was administered to C57BL/6J DiO mice at 9:00; a group in which 10 mpk Thioperamide was administered thereto at 9:00; a group in which a solvent was administered to C57BL/6J DiO mice at 17:00; and a group in which 10 mpk Thioperamide was administered thereto at 17:00. […] Thereafter, blood was collected from the orbit of each mouse, and the glucose and insulin levels were measured. […]

SMILES: N=C(N)SCCc1c[nH]cn1 [Imetit, carbamimidothioic acid 2-(1H-imidazol-4-yl)ethyl ester]
- body weight of fat mice: significantly decreased
